Earlier results on one compound are cited in US20200306210A1, “CHANGING COGNITIVE FUNCTION WITH FENFLURAMINE” (ZOGENIX INTERNATIONAL LIMITED, priority 2017, published 2020).

The subject of this data set is serotonin 5-HT2 receptors. The note with it: cited from earlier work.

Consider `CCNC(C)Cc1cccc(C(F)(F)F)c1` (racemic) [fenfluramine, (RS)—N-ethyl-1-[3-(trifluoromethyl)phenyl]propan-2-amine], for which the “Binding to serotonin 5-HT2 receptors” value is recorded as “very weakly”.
